Data on one compound can be found in patent EP2402322A1, “1,2,3,4-tetrahydroisoquinoline derivative and its use as orexin receptor antagonist” (Actelion Pharmaceuticals Ltd., priority 2010, dated 2012).

Sequences of proteins named here, by UniProt entry; tags and fusion partners are left off.
UniProt O43614, whole entry: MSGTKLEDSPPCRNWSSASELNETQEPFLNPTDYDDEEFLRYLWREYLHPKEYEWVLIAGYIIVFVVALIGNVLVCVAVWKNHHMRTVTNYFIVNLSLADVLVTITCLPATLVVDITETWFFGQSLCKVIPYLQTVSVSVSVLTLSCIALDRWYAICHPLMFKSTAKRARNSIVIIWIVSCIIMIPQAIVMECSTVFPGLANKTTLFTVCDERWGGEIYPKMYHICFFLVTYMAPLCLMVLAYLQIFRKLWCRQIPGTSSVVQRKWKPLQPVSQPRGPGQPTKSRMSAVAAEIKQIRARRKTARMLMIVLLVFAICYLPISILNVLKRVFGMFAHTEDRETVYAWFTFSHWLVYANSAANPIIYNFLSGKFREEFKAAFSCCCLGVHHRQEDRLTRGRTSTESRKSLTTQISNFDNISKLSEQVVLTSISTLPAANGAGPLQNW

In the assay the target is T1, human orexin-2 receptor (Homo sapiens, UniProt O43614).
T1 construct: expressed in transfected cells; host or cells: CHO cells (G418 selection)
Briefly: Intracellular calcium measurements (FLIPR), CHO cells, 3 nM orexin-A as agonist. The class given is cell-based. As for the experimental part: Chinese hamster ovary (CHO) cells expressing the human orexin-1 receptor and the human orexin-2 receptor, respectively, are grown in culture medium (Ham F-12 with L-Glutamine) containing 300 µg/ml G418, 100 U/ml penicillin, 100 µg/ml streptomycin and 10 % heat inactivated fetal calf serum (FCS). The cells are seeded at 20'000 cells / well into 384-well black clear bottom sterile plates (Greiner). The seeded plates are incubated overnight at 37°C in 5% CO2.
Human orexin-A as an agonist is prepared as 1 mM stock solution in MeOH: water (1:1), diluted in HBSS containing 0.1 % bovine serum albumin (BSA), NaHCO3: 0.375g/l and 20 mM HEPES for use in the assay at a final concentration of 3 nM. […]
Within the Fluorescent Imaging Plate Reader (FLIPR Tetra, Molecular Devices), antagonists are added to the plate in a volume of 10 µl/well, incubated for 10 min and finally 10 µl/well of agonist is added. Fluorescence is measured for each well at 1 second intervals, and the height of each fluorescence peak is compared to the height of the fluorescence peak induced by 3 nM orexin-A with vehicle in place of antagonist. […] The calculated IC50 values may fluctuate depending on the daily cellular assay performance. […]

Turning to `COc1ccc(C[C@H]2c3cc(OC)c(OC)cc3CCN2[C@@H](C(=O)NC(C)C)c2ccccc2)cc1OC` [COMPOUND, (R)-2-[(S)-1-(3,4-dimethoxy-benzyl)-6,7-dimethoxy-3,4-dihydro-1H-isoquinolin-2-yl]-N-isopropyl-2-phenyl-acetamide], the IC50 was above 500 nM.

A word on the IC50: it is the concentration at which inhibition is half-maximal.
